How the values were obtained:
[1] = target: T1, Human STING (hSTING-R232) (Homo sapiens, UniProt Q86WV6, H232R); experiment: Activation of human STING signaling in THP1-Dual KI-hSTING-R232 cells (IRF promoter, QUANTI-Luc); type: cell-based
T1 construct: host or cells: THP1-Dual KI-hSTING-R232 cells
Description: Activation of Human STING Signaling in THP1 Cell Line
The cells were treated with 20 μl/well of compounds at 8 concentrations in duplicate in 96-well plate, and incubate for 24 h. To measure IRF promoter activity, 15 μl of cell culture supernatant was mixed with 45 μl QUANTI-Luc in an opaque 96-well plate and immediately measured using Luminometer; to measure NF-κB promoter activity, 15 μl of supernatant was mixed with 90 μl QUANTI-Blue, and incubated at 37° C. for 90 minutes, and read at OD650 nm. EC50 was calculated by nonlinear regression fit with 4-parameter responsive curve fitting using GraphPad Version 8 software (Table 1).

The chains behind the UniProt entries cited, without tags or fusion partners.
UniProt Q86WV6, whole entry H232R: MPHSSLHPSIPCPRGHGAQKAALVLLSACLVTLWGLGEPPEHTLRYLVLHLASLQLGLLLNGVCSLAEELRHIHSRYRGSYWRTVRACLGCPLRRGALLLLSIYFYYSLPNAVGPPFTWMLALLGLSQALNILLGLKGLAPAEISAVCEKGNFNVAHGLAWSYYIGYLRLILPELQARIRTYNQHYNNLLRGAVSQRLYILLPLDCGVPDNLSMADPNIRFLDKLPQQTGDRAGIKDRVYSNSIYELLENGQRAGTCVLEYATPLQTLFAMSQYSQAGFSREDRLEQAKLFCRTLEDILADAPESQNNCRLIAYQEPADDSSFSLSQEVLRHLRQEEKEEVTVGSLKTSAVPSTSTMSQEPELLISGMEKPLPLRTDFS

hSTING R232 = target: T2, hSTING R232 (Homo sapiens, UniProt Q86WV6, H232R); experiment: IRF activation in 293T-Dual hSTING R232 cells (Quanti-Blue); type: cell-based
T2 construct: host or cells: 293T-Dual hSTING R232 cells
Description: A test compound with a serial of 1:3 dilution was prepared in complete medium, and 20 μL of the compound was added to the corresponding well, and incubated with the cells at 37° C. incubator for 24 hr.
To determine the effect on interferon regulatory factor (IRF) activation, 15 μL of cell culture supernatant was transferred into a fresh 96-half area-well plate, 90 μL of Quanti-Blue was added to each well and incubated at 37° C. for 90 min. OD at 650 nm was recorded. EC50 was calculated by nonlinear regression fit with 4-parameter responsive curve fitting using GraphPad Version 8 software (Table 2).

Row | Structure (SMILES) | EC50 [1] [nM] | EC50 (hSTING R232) [nM]
1 | BP1(=O)OC[C@H]2O[C@@H](n3cnc4c(N)ncnc43)[C@H](F)[C@@H]2O[P@@](=O)(SCc2ccc(OC(=O)c3ccc(OCCN=[N+]=[N-])cc3)cc2)OC[C@H]2O[C@@H](n3cnc4c(=O)[nH]c(N)nc43)[C@H](F)[C@@H]2O1 (stereo partly drawn) [Compound A3, ((2R,3R,3aR,7aR,9R,10R,10aR,12S,14aR)-2-(2-amino-6-oxo-1,6-dihydro-9H-purin-9-yl)-9-(6-amino-9H-purin-9-yl)-12-((4-((4-(2-azidoethoxy)benzoyl)oxy)benzyl)thio)-3,10-difluoro-5,12-dioxidooctahydro-2H,7H-difuro[3,2-d:3′,2′-j][1,3,7,9]tetraoxa[2,8]diphosphacyclododecin-5-yl)trihydroborate] | 2 | 22
2 | [BH3-][P+]1(O)OC[C@H]2O[C@@H](n3cnc4c(N)ncnc43)[C@H](F)[C@@H]2O[P@@](=O)(SCc2ccc(OC(=O)CCCN=[N+]=[N-])cc2)OC[C@H]2O[C@@H](n3cnc4c(=O)[nH]c(N)nc43)[C@H](F)[C@@H]2O1 (stereo partly drawn) [Compound A2, ((2R,3R,3aR,7aR,9R,10R,10aR,12S,14aR)-2-(2-amino-6-oxo-1,6-dihydro-9H-purin-9-yl)-9-(6-amino-9H-purin-9-yl)-12-((4-((4-azidobutanoyl)oxy)benzyl)thio)-3,10-difluoro-5,12-dioxidooctahydro-2H,7H-difuro[3,2-d:3′,2′-j][1,3,7,9]tetraoxa[2,8]diphosphacyclododecin-5-yl)trihydroborate] | 54 | 70

Reference: patent publication US20240066133A1, “THERAPEUTIC AGENTS AND CONJUGATES THEREOF” (Beijing Xuanyi PharmaSciences Co., Ltd., priority 2020, published 2024)
